Our source for the AC50 values is patent publication US11241436B2, “Autophagy inducers for treatment of CNS conditions” (Northwestern University, priority 2017, dated 2022).

Usually AC50 stands for the concentration giving half of the maximal activity seen. A high value points to activity only at high concentration.

For this assay, the system named is LC3. As to the kind of experiment: Promega Autophagy Assay System (HiBiT-tagged LC3 reporter, autophagy flux). The note with it: LC3 reporter signal; decrease = increased autophagy. The class given is cell-based. The text has this: The Promega Augophagy Assay System uses LC3 to monitor the autophagy process. […] LgBiT is a […] recombinant protein derived from NanoLuc. When HiBiT associates with LgBiT, a strong luciferase activity is reconstituted. An increase in autophagy will accelerate the degradation of LC3 reporter which decreases the assay signal. In contrast, inhibition of autophagy causes the accumulation of LC3 which will increase the reporter levels and assay signal.

The compound `N=c1c2c(-c3ccccc3)c(-c3ccccc3)n(Cc3ccccc3)c2ncn1CCCO` registered an AC50 of 3.66 µM.
